{
  "source": "paper PMC11510563",
  "about": "(Pharmaceutics, 2024)",
  "tested_on": "RPMI 2650 human nasal epithelial cell barrier",
  "assay": "FITC-insulin transcytosis across RPMI 2650 barrier at air-liquid interface",
  "type": "in vitro ADME",
  "conditions": "for apparent permeability (Papp), raw data of Figure 3b: RPMI 2650 at air-liquid interface, apical to basal, FITC-insulin, 6 h period as a whole",
  "method": "RPMI 2650 cells were seeded on polystyrene capillary pore membrane inserts (12.07 mm diameter, 0.4 μm pore size; 66564; Greiner Bio-One, Stonehouse, UK) that fit into 12-well plates (250,000 cells in 500 μL of supplemented EMEM in the apical chamber with a further 1 mL of media in the basal chamber). After eight days, liquid-covered culture medium was removed from the apical chamber, and cells were cultured at the air–liquid interface for a further 12–13 days to stimulate the expression of physiologically relevant tight junction and drug transport proteins. Medium was refreshed, and TEER was measured every two to four days using an EVOM2^TM epithelial voltohmeter (World Precision Instruments, Sarasota, FL, USA), with background conductance removed by subtracting acellular readings. TEER of human nasal mucosa is typically 60–180 Ω/cm^2 [18], so only cultures with TEER above 60 Ω/cm^2 were used for transcytosis or viability studies.",
  "data": [
    {"substance": "insulin", "values": [
      {"measurement": "apparent permeability (Papp), raw data of Figure 3b", "setting": "replicate 1", "value": 0.827},
      {"measurement": "apparent permeability (Papp), raw data of Figure 3b", "setting": "replicate 2", "value": 1.309},
      {"measurement": "apparent permeability (Papp), raw data of Figure 3b", "setting": "replicate 3", "value": 0.9267},
      {"measurement": "transcytosis across the RPMI 2650 barrier", "setting": "air-liquid interface, 3.4 μM FITC-insulin, up to 6 h", "value": "minimal"}
    ]}
  ]
}
